The test has as its target Human pyruvate kinase R (PKR) (Homo sapiens, UniProt P30613). Description: Biochemical assay for activation of pyruvate kinase R (Kinase-Glo luminescence, ATP generation). To be noted: for PKR % activation: maximal activation level relative to the activation level achieved by AG-348 @ 10 μM; for AC50: read-out: PKR AC50, 0.1 nM PKR, 2 mM FBP, 0.3 mM ADP, 0.1 mM PEP. A general note: Kinase-Glo reads ATP consumption through a luciferase reaction.

Sequences of proteins named here, by UniProt entry; tags and fusion partners are left off. Residues count along the entry.
UniProt P30613, 14-574 limits assumed: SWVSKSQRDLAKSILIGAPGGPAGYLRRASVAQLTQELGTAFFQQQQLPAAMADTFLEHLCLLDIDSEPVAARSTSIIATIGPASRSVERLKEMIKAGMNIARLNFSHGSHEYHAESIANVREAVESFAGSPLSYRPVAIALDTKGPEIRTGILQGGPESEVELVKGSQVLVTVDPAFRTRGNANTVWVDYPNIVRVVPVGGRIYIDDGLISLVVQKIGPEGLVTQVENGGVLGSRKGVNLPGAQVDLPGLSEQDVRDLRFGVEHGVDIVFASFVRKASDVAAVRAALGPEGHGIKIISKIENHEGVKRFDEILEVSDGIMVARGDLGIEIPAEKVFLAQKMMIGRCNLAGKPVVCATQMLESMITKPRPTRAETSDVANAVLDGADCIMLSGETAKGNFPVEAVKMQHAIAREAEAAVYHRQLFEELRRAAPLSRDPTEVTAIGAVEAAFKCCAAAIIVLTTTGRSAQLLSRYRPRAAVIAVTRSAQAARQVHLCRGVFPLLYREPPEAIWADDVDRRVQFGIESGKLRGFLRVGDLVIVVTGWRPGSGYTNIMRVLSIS

By AC50 is commonly meant the midpoint of the concentration-response curve, whichever way the signal moves. For `COc1ccc(S(=O)(=O)n2cc3c(n2)CN(C(=O)C(O)c2ncccc2F)C3)nc1` (single isomer, unassigned) [Compound 104], the PKR % activation was 103% and the AC50 was determined as 0.24 µM.

Regarding `COc1ccc(S(=O)(=O)n2cc3c(n2)CN(C(=O)C(O)c2ncccc2F)C3)nc1` (single isomer, unassigned) [Compound 105], the PKR % activation amounted to 151% and the AC50 amounted to 9.4 µM.

(Values after patent US20230159538A1, “PYRROLIDINE-PYRAZOLES AS PYRUVATE KINASE ACTIVATORS” (Global Blood Therapeutics, Inc., priority 2020, published 2023).)
